# Measured values from publication PMC3259267 (Bioorganic & medicinal chemistry, 2011).
# Test system: G93A SOD1 transgenic mouse model for ALS
# Conditions: untreated 126.4+/−4.2
structure (smiles),measurement,setting,value
O=C1CC(=O)CC(c2cc(C(F)(F)F)cc(C(F)(F)F)c2)C1 [Compound 26],survival (Kaplan-Meier),"Group 1, 1 mg/kg ip once a day",128.9+/−6.1
same,survival (Kaplan-Meier),"Group 2, 10 mg/kg ip once a day",130.5+/−5.8
same,survival (Kaplan-Meier),"Group 3, 20 mg/kg ip once a day",132.3+/−4.7

# Like-named read-outs stand apart in the source and are kept apart here.
